Laboratory results: US20070059799A1 (priority 1999, published 2007)

By UniProt entry, the sequences of proteins in these tests, tags left out. Where a name states a change or a piece, a line headed by the entry shows the natural chain unless it says otherwise.
UniProt P01889: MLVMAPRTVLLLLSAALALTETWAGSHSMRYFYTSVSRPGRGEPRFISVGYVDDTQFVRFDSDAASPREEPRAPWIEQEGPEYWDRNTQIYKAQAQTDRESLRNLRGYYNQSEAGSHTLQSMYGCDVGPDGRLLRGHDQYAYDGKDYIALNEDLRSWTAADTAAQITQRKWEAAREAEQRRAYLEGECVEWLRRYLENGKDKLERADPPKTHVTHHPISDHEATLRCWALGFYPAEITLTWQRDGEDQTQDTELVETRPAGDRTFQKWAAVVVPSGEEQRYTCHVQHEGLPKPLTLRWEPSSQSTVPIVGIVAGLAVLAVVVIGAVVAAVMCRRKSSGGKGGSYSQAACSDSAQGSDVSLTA

Legend:
A*6801 = A*6801 (Homo sapiens, UniProt P04439, A269V/D185E/E176V/E277Q/E87N/F33Y/G231S/I121M/I166T/I218V/L180W/L300P/L318F/N151K/P208A/P217A/Q86R/R169H/T345S); test: Purified HLA class I peptide binding assay
B*5401 = B*5401 (Homo sapiens, UniProt P01889, A329T/C349S/D138N/D201E/E176V/E187T/E204Q/E69G/I76V/K202T/L119W/R155S/R180L/S121T/S35A/S48A/V127L/V306I/V36M/Y140L); test: biochemical; type: binding
A*0301 = A*0301 (Homo sapiens, UniProt P04439); test: Purified HLA class I peptide binding assay (HLA-A*03)
A*0101 = A*0101 (Homo sapiens, UniProt P04439, A114D/A174V/A182V/D101N/D185E/E176A/E190D/L180R/Q94H/R68K/S129P/T187R/V100A/V91M/W191G); test: biochemical

Structure (SMILES) | pIC50 (B*5401) | also measured
CC(C)C[C@H](NC(=O)[C@H](CC(=O)O)NC(=O)[C@@H](NC(=O)[C@@H](N)[C@@H](C)O)[C@@H](C)O)C(=O)N[C@@H](CCC(=O)O)C(=O)N[C@@H](C)C(=O)N[C@@H](Cc1ccc(O)cc1)C(=O)N[C@@H](Cc1ccccc1)C(=O)N[C@@H](CCCCN)C(=O)O [Peptide 1.0215.] |  | pIC50 (A*6801): 6.33
CC(C)C[C@H](NC(=O)[C@H](CCC(N)=O)NC(=O)[C@H](Cc1c[nH]cn1)NC(=O)[C@H](CC(=O)O)NC(=O)[C@@H]1CCCN1C(=O)[C@@H](N)Cc1ccccc1)C(=O)N[C@@H](CC(=O)O)C(=O)N1CCC[C@H]1C(=O)N[C@@H](C)C(=O)O [Peptide 16.0006] | 7.92 | 
CC[C@H](C)[C@H](NC(=O)[C@@H]1CCCN1C(=O)[C@@H](N)CC(C)C)C(=O)N[C@@H](Cc1c[nH]cn1)C(=O)N[C@H](C(=O)N[C@@H](C)C(=O)N[C@@H](CCC(=O)O)C(=O)N[C@@H](CC(C)C)C(=O)N[C@@H](CC(C)C)C(=O)N[C@@H](C)C(=O)O)[C@@H](C)O [Peptide 16.0181] | 7.52 | 
CC(C)C[C@H](NC(=O)[C@H](Cc1ccccc1)NC(=O)[C@@H](NC(=O)CNC(=O)CNC(=O)[C@@H](NC(=O)[C@@H](NC(=O)[C@H](CCCNC(=N)N)NC(=O)[C@H](C)NC(=O)[C@@H]1CCCN1C(=O)[C@@H](N)[C@@H](C)O)C(C)C)[C@@H](C)O)C(C)C)C(=O)O [Peptide 26.0568] | 4.70 | 
CC(C)C[C@H](NC(=O)[C@@H](NC(=O)[C@@H](NC(=O)[C@H](CO)NC(=O)[C@H](CC(N)=O)NC(=O)[C@H](CC(=O)O)NC(=O)[C@@H](NC(=O)CN)[C@@H](C)O)C(C)C)C(C)C)C(=O)N[C@@H](CO)C(=O)N[C@@H](CCCNC(=N)N)C(=O)N[C@@H](CCCCN)C(=O)O [Peptide 1147.17] |  | pIC50 (A*0301): 6.10
CSCC[C@H](NC(=O)[C@@H](N)Cc1ccc(O)cc1)C(=O)N[C@@H](CC(=O)O)C(=O)N[C@@H](CC(=O)O)C(=O)N[C@H](C(=O)N[C@H](C(=O)N[C@@H](CC(C)C)C(=O)NCC(=O)N[C@@H](C)C(=O)O)C(C)C)C(C)C [peptide 1090.14] |  | pIC50 (A*0101): 7.02

pIC50: −log10 of the molar value.
